# Target: human SGLT1 (Homo sapiens (Human), UniProt P13866)
# Chains of the proteins cited; added tags and fusions are not shown. Lines headed by an entry give the natural chain unless they say otherwise; changes in a name come on top.
# UniProt P13866: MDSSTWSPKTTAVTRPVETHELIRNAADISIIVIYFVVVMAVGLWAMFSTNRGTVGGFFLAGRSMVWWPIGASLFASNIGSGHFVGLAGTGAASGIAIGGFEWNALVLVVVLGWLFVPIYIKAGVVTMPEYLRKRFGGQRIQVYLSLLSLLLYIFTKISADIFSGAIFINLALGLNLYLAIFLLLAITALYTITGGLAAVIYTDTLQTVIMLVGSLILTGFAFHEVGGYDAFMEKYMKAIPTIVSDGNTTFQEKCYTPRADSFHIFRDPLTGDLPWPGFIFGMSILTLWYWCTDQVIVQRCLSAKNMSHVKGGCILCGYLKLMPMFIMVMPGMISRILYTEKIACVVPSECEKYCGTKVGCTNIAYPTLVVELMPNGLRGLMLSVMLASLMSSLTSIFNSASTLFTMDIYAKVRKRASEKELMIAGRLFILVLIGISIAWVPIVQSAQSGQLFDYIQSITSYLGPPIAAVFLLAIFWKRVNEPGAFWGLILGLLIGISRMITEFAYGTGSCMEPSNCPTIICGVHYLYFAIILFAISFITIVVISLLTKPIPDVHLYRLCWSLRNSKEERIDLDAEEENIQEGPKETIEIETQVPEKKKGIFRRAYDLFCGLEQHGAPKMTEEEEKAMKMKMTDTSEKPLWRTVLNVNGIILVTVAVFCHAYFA
# Experiment: SGLT1 inhibitory activity: 14C-AMG uptake into CHO-K1 cell line stably expressing human SGLT1
# Format: cell-based
# Conditions: CHO-K1 cells expressing human SGLT1
# Description: SGLT1 inhibitory activity of a test compound (IC50 value) was calculated based on an amount of intake into a cell of labeled α-methyl-D-glucopyranoside (^14C-AMG) which is transported by SGLT1.
# 1) Construction of Human SGLT1 Expression Plasmid
# A DNA fragment containing human SGLT1, wherein NheI recognition and cleavage sequence was added upstream of a Kozac consensus sequence of the vector; and a stop codon (TAG) and a SalI recognition and cleavage sequence was added just downstream of a coding region of the human SGLT1, was amplified by PCR using pCMV6-hSGLT1 (OriGene) as a template. The purified DNA fragment was cleaved by restriction enzymes NheI and SalI, and the obtained fragment was ligated into pcDNA3.1 (+) which was cleaved by NheI and XhoI to construct human SGLT1 expression plasmid.
# 2) Establishment of Stable Cell Lines Expressing Human SGLT1
# A human SGLT1 expression plasmid pcDNA-hSGLT1 was transfected into CHO-K1 cells by Lipofectamine-2000 (Invitrogen). The cells were cultured in the presence of G418 (Nakalai tesque) and drug-resistant cells were selected. A cell line having the highest S/B ratio of an amount of ^14C-AMG uptake per cell treated by solvent to an amount of ^14C-AMG uptake per cell treated by phlorizin (SGLT inhibitor) was selected from the drug-resistant cells as a stable cell lines expressing human SGLT1.
# 3) Evaluation of SGLT1 Inhibitory Activity
# The stable cell line expressing human SGLT1 was seeded at 5×10^4 cells/well on BioCoat™ Poly-D-Lysine 96 well plate with Lid (Becton Dickinson and Company) and cultured at 37° C. under 5% CO2 overnight. The medium was replaced with 100 μL/well of a Na (−) buffer (140 mM choline chloride, 2 mM KCl, 1 mM MgCl2, 1 mM CaCl2, 10 mM HEPES, 5 mM Tris, pH7.4) followed by incubation for 20 minutes at 37° C. under 5% CO2. After removing the Na (−) buffer, a test compound solution which was prepared from Na (+) buffer (140 mM NaCl, 2 mM KCl, 1 mM MgCl2, 1 mM CaCl2, 10 mM HEPES, 5 mM Tris, pH7.4) containing BSA was added thereto at 40 μL/well. In addition, Na (+) buffer containing 8 kBq of ^14C-AMG and 2 mM AMG was added thereto at 40 μL/well, and was mixed well. Na (−) buffer containing BSA was added to a blank well at 40 μL/well and additionally adding a Na (+) buffer containing 8 kBq of ^14C-AMG and 2 mM AMG, and was mixed well. Cells were incubated for 1 hour at 37° C. under 5% CO2. After the reaction, the cells were washed twice with 100 μL/well of iced wash buffer (100 mM AMG, 140 mM choline chloride, 2 mM KCl, 1 mM MgCl2, 1 mM CaCl2, 10 mM HEPES, 5 mM Tris, pH7.4), then lysed in 50 μL/well of a 0.2N aqueous solution of NaOH. The cell lysate was transferred to OptiPlate96 (Perkin-Elmer) and 100 μL/well of MicroScint-40 (Perkin-Elmer) was dispensed. The radioactivity was counted by TOPCOUNT NXT (Perkin-Elmer).
# A data was obtained by deducting the average value (CPM) of blank wells from the average value (CPM) of each treated well. The inhibition ratio (%) was calculated by the following formula: inhibition rate (%)=[(A−B)/A]×100, where A is a data of the solvent control, and B is a data of a test compound.
row,IC50,Compound
1,34 nM,CCCc1cccc(-c2cc(NC(=O)[C@@H]3CNC(=O)[C@H]3C)nn2-c2ccccc2)c1 [Example 90]
2,40 nM,CCCc1cccc(-c2cc(NC(=O)C3CNC(=O)C3)nn2CCC)c1 (racemic) [Example 15]
3,370 nM,"CCCc1cccc(-c2cc(NC(=O)C3CCC(=O)NC3)nn2-c2ccccc2)c1 (single isomer, unassigned) [Example 96]"
4,11700 nM,CC(C)n1nc(NC(=O)C2CNC(=O)C2)cc1-c1ccccc1 (racemic) [Example 16]
5,1.4 nM,CCCc1cccc(-c2cc(NC(=O)[C@H]3CNC(=O)C3)nn2-c2ccccc2F)c1 [Example 117]
6,12 nM,CCCCCCn1nc(NC(=O)C2CNC(=O)C2)cc1-c1cccc(CCC)c1 (racemic) [Example 14]
7,1.8 nM,CCCc1cccc(-c2cc(NC(=O)[C@H]3CNC(=O)[C@@H]3C)nn2-c2ccccc2)c1 [Example 91]

# Same assay, conditions: CHO-K1 cells stably expressing human SGLT1
row,IC50,Compound
1,180 nM,CCCc1cccc(-c2cc(NC(=O)C3CCNC(=O)CC3)nn2-c2ccccc2)c1 (racemic) [Example 274]
2,9.7 nM,CCCc1cccc(-c2cc(NC(=O)[C@@H]3CNC(=O)C3)nn2-c2ccccc2OCC)c1 [Example 377]
3,2.05 nM,CC(C)Oc1cc(-n2nc(NC(=O)[C@@H]3CNC(=O)C3)cc2-c2cccc(CO[C@H](C)C(F)(F)F)c2)ccc1F [Example 426]
4,16 nM,"CCCc1cccc(-c2cc(NC(=O)C3CNC(=O)C3(C)C)nn2-c2ccccc2)c1 (single isomer, unassigned) [Example 397]"
5,7.1 nM,COCCOc1cc(-n2nc(NC(=O)[C@@H]3CNC(=O)C3)cc2-c2cccc(COCC(F)(F)F)c2)ccc1F [Example 424]
6,21 nM,CCC(C)(C)C(O)c1cccc(-c2cc(NC(=O)[C@@H]3CNC(=O)C3)nn2-c2ccccc2)c1 (mixture of isomers) [Example 434]
7,57 nM,CCCc1cccc(-c2cc(NC(=O)C3CNC(=O)OC3)nn2-c2ccccc2)c1 (racemic) [Example 339]
8,5.9 nM,CCCc1cccc(-c2cc(NC(=O)[C@@H]3CNC(=O)C3)nn2-c2cccc(COC)c2)c1 [Example 458]
9,14 nM,O=C1NCC(C(=O)Nc2cc(-c3cccc(OC(F)(F)F)c3)n(-c3ccccc3)n2)C1CO (racemic) [Example 253]

# Source: patent US8846746B2, “Pyrazole compound and pharmaceutical use thereof” (Japan Tobacco Inc., priority 2011, dated 2014)
